For the assay, the system named is Y-1. As to the kind of experiment: Stimulation of steroid (pregnenolone) biosynthesis in mouse Y-1 adrenocortical cells at 40 uM.

In turn, `Cc1ccc(C2=C(OC(=O)N(C)C)c3cccn3-c3ccccc3O2)cc1` had a Production of 38.4 ng 2hr-1.

In the case of `CN(C)C(=O)OC1=C(c2ccccc2)Oc2ccccc2-n2cccc21`, the Production was 33.7 ng 2hr-1.

These data come from ChEMBL document CHEMBL1129620 (J Med Chem, 1996).
